The values below come from patent US10633374B2, “Small molecule based antibody-recruiting compounds for cancer treatment” (YALE UNIVERSITY, priority 2015, dated 2020).

The chains behind the UniProt entries cited, without tags or fusion partners. Residues count along the entry.
UniProt Q03405, 23-305 limits assumed: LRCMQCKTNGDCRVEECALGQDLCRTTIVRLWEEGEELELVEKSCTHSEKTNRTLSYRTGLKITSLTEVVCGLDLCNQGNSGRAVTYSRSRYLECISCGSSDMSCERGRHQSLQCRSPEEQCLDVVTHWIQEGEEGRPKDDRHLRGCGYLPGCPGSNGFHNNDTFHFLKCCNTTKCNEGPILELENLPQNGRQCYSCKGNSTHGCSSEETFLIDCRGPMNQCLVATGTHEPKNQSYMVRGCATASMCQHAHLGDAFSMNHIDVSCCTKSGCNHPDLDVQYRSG

The experiment addresses uPAR (Homo sapiens, UniProt Q03405). The experiment can be described thus: Fluorescence quenching titration of ARM-U2 derivatives with uPAR. Particulars: read-out: Kd, solution equilibrium dissociation constant with uPAR; fluorescence titration of 100 nM derivative with increasing uPAR; tested form: ammonium formate salt. The protocol: Selected ARM-U2 derivatives were assayed for their ability to bind recombinant uPAR using a fluorescence quenching assay. […] Increasing concentrations of recombinant uPAR were mixed with each compound containing aliquot and the fluorescence of the solution measured following 1 h equilibration times. […] To confirm that the observation of uPAR dependent fluorescence quenching was indeed due to specific binding to uPAR and to validate ARM-U2 binding to uPAR specifically via the uPA binding site, a direct binding ELISA assay was developed. In this assay, clear 96-well high-binding plates from CoStar, were loaded with 100 μl/well of 50 nM recombinant uPAR 807-UK-100-CF from R&D systems prepared from a 100 μg/ml (approx. 2.1 μM) stock of uPAR in PBS and left overnight at room temperature to equilibrate. […] The absorbance at 450 nm was measured using an in-house Perkin-Elmer fluorescence plate reader.
All ARM-U2 derivatives were assessed for their ability to bind selectively to recombinant uPAR in vitro using a competitive ELISA binding assay. […] Selective binding to uPAR by ARM-U2 at the uPA binding site competes with uPAR-uPA binding which is required for a positive UV 450 nm absorbance signal. Increasing concentrations of ARM-U2 displace increasing amounts of uPAR from uPA which is detected by anti-uPAR/biotin labeled antibodies followed by avidin-HRP. […]

Broadly, the Kd is the concentration at which binding is half-saturated. `O=C1c2ccccc2-c2onc3c(N4CCC[C@H](C(=O)NCCCOCCOCCOCCCNc5ccc([N+](=O)[O-])cc5[N+](=O)[O-])C4)cc(Nc4ccc(S(=O)(=O)O)cc4S(=O)(=O)O)c1c23`: the Kd turned out to be 8.7 nM.
